Test results reported in patent US9434725B2, “5-azaindazole compounds and methods of use” (priority 2012, dated 2016).
pIC50, pKi: −log10 of the molar value.

By UniProt entry, the sequences of proteins in these tests, tags left out.
UniProt P11309, whole entry: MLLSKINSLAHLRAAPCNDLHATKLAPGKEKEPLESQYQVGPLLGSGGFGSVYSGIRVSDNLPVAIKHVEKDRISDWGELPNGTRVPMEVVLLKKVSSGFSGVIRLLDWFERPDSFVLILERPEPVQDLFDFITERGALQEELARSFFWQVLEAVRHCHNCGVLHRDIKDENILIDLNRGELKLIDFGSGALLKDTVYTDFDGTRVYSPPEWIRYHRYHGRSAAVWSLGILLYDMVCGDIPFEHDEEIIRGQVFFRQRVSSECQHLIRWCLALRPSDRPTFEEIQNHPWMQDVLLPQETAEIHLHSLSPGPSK

Columns and labels:
[1] = molecular target: PIM1 (Homo sapiens (Human), UniProt P11309); assay type: biochemical; details: 10 μM ATP, 90 min, room temperature; read-out: PIM1 LC3K (KI)
Method: A fluorescent-labeled Pim-specific peptide substrate, was custom synthesized by American Peptide Company (Sunnyvale, Calif.). Reaction Buffer contained 10 mM HEPES, pH 7.2, 10 mM MgCl2, 0.01% Tween 20, 2 mM DTT. Termination Buffer contained 190 mM HEPES, pH 7.2, 0.015% Brij-35, 0.2% Coating Reagent 3 (Caliper Life Sciences, Hopkinton, Mass.), 20 mM EDTA. Separation Buffer contained 100 mM HEPES, pH 7.2, 0.015% Brij-35, 0.1% Coating Reagent 3, 1:200 Coating Reagent 8 (Caliper Life Sciences, Hopkinton, Mass.), 10 mM EDTA and 5% DMSO.
PIM reactions were carried out in a final volume of 10 μL per well in a 384-well plate. […] After 90 minutes of incubation at room temperature, the phosphorylation reaction was stopped by the addition of 10 μL Termination Buffer. The product and substrate in each independent reaction were separated on a 12-sipper microfluidic chip (Caliper Life Sciences, Hopkinton, Mass.) run on a Caliper LC3000® (Caliper Life Sciences, Hopkinton, Mass.). The separation of product and substrate was optimized by choosing voltages and pressure using Caliper's Optimizer software (Hopkinton, Mass.). The separation conditions used a downstream voltage of −500V, an upstream voltage of −2150V, and a screening pressure of −1.2 psi. […] Substrate conversion was calculated from the electropherogram using HTS Well Analyzer software (Caliper Life Sciences, Hopkinton, Mass.). Ki values for the test compound were calculated.

[2] = system: BaF3 PIM1 cells; assay: In vitro cell proliferation potency assay (Cell Titer Glo), BaF3 PIM1 cells; assay type: cell-based, murine; details: Mus musculus, BaF3, BaF3 cells transfected with PIM1, incubated overnight; read-out: Prolif BaF3_PIM 1 (IC50)
Method: BaF3 parental line was obtained from the DSMZ repository. BaF3 lines transfected with PIM1 or PIM2 were generated. Mouse IL-3 was purchased from R&D Systems. G418 was purchased from Clontech. Media for BaF3 parental line contained RPMI, 10% FBS, 2 mM L-Glutamine, 2 ng/mL mIL-3. Media for BaF3 PIM1 & 2 lines contained RPMI, 10% FBS, 2 mM L-Glutamine, […]. Media for MM1.S (multiple myeloma cells) line contained RPMI, 10% FBS, 2 mM L-Glutamine.
BaF3, a murine interleukin-3 dependent pro-B cell line, parental cells, BaF3 PIM1 cells, BaF3 PIM2 cells, and MM1.S (multiple myeloma) cells were seeded at 2 k/well, 5 k/well, 5 k/well, and 10 k/well respectively, in a 384-well plate, at 45 μL/well. Test compound was added at 5 μL/well. BaF3 cells (parental and transfected) were incubated overnight, while MM1.S cells were incubated for 72 hours at 37° C., 5% CO2. CELL TITER GLO® Reagent (Promega) was added at 50 μL/well, the plates were incubated for 30 minutes, and their luminescence read on an HT Analyst. IC50/EC50 values for the test compound were calculated.

Structure (SMILES): CCc1cncc(-c2cc3c(cn2)cnn3-c2cccc(N3CCCNCC3)n2)n1 [Compound 150, 1-[6-(1 4-diazepan-1-yl)-2-pyridyl]-6-(6-ethylpyrazin-2-yl)pyrazolo[4 3-c]pyridine]
- pKi [1]: 10.68
- pIC50 [2]: 6.71

Structure (SMILES): CCn1cncc(-c2cc3c(cn2)cnn3-c2cccc(N3CCNCC3)n2)c1=O [Compound 151, 3-ethyl-5-[1-(6-piperazin-1-yl-2-pyridyl)pyrazolo[4,3-c]pyridin-6-yl]pyrimidin-4-one]
- pKi [1]: 9.74
- pIC50 [2]: 6.26

Structure (SMILES): FCCn1cc(-c2cc3c(cn2)cnn3-c2cccc(N3CCCNCC3)n2)cn1 [Compound 153, 1-(6-(1,4-Diazepan-1-yl)pyridin-2-yl)-6-(1-(2-fluoroethyl)-1H-pyrazol-4-yl)-1H-pyrazolo[4,3-c]pyridine]
- pKi [1]: 10.02
- pIC50 [2]: 6.54

Structure (SMILES): FC(F)(F)Cn1cc(-c2cc3c(cn2)cnn3-c2cccc(N3CCCNCC3)n2)cn1 [Compound 154, 1-(6-(1,4-Diazepan-1-yl)pyridin-2-yl)-6-(1-(2,2,2-trifluoroethyl)-1H-pyrazol-4-yl)-1H-pyrazolo[4,3-c]pyridine]
- pKi [1]: 10.09
- pIC50 [2]: 6.46

Structure (SMILES): N#CCn1cc(-c2cc3c(cn2)cnn3-c2cccc(N3CCCNCC3)n2)cn1 [Compound 155, 2-(4-(1-(6-(1,4-Diazepan-1-yl)pyridin-2-yl)-1H-pyrazolo[4,3-c]pyridin-6-yl)-1H-pyrazol-1-yl)acetonitrile]
- pKi [1]: 9.84
- pIC50 [2]: 6.29

Structure (SMILES): CCc1cncc(-c2cc3c(cn2)cnn3-c2cccc(N3CCC[C@H](N)C3)n2)n1 [Compound 156, (3S)-1-[6-[6-(6-ethylpyrazin-2-yl)pyrazolo[4,3-c]pyridin-1-yl]-2-pyridyl]piperidin-3-amine]
- pKi [1]: 10.33
- pIC50 [2]: 5.85

Structure (SMILES): FC(F)Cn1cc(-c2cc3c(cn2)cnn3-c2cccc(N3CCCNCC3)n2)cn1 [Compound 162, 1-(6-(1,4-Diazepan-1-yl)pyridin-2-yl)-6-(1-(2,2-difluoroethyl)-1H-pyrazol-4-yl)-1H-pyrazolo[4,3-c]pyridine]
- pKi [1]: 9.38
- pIC50 [2]: 6.76

Structure (SMILES): Cc1cncc(-c2cc3c(cn2)cnn3-c2cccc(C3CCNCC3)n2)n1 [Compound 166, 6-(6-methylpyrazin-2-yl)-1-[6-(4-piperidyl)-2-pyridyl]pyrazolo[4,3-c]pyridine]
- pKi [1]: 9.29
- pIC50 [2]: 6.57

Structure (SMILES): Cc1cncc(-c2cc3c(cn2)cnn3-c2cccc(N3CC[C@H](N)C3)n2)n1 [Compound 167, (3S)-1-[6-[6-(6-methylpyrazin-2-yl)pyrazolo[4,3-c]pyridin-1-yl]-2-pyridyl]pyrrolidin-3-amine]
- pKi [1]: 9.11
- pIC50 [2]: 6.26

Structure (SMILES): Cc1cncc(-c2cc3c(cn2)cnn3-c2cccc(N3CC[C@@H](N)C3)n2)n1 [Compound 168, (3R)-1-[6-[6-(6-methylpyrazin-2-yl)pyrazolo[4,3-c]pyridin-1-yl]-2-pyridyl]pyrrolidin-3-amine]
- pKi [1]: 9.01
- pIC50 [2]: 7.12

Structure (SMILES): Cc1cncc(-c2cc3c(cn2)cnn3-c2ccc(Cl)c(N3CCC[C@H](N)C3)n2)n1 [Compound 176, (S)-1-(3-chloro-6-(6-(6-methylpyrazin-2-yl)-1H-pyrazolo[4,3-c]pyridin-1-yl)pyridin-2-yl)piperidin-3-amine]
- pKi [1]: 10.14
- pIC50 [2]: 6.27

Structure (SMILES): c1cc(N2CCCNCC2)nc(-n2ncc3cnc(-c4cn[nH]c4)cc32)c1 [Compound 180, 1-(6-(1,4-Diazepan-1-yl)pyridin-2-yl)-6-(1H-pyrazol-4-yl)-1H-pyrazolo[4,3-c]pyridine]
- pKi [1]: 9.91
- pIC50 [2]: 6.13

Structure (SMILES): Cc1cncc(-c2cc3c(cn2)cnn3-c2cccc(N3CCNC(C)CC3)n2)n1 (centres unmarked) [Compound 184, 1-[6-(5-methyl-1 4-diazepan-1-yl)-2-pyridyl]-6-(6-methylpyrazin-2-yl)pyrazolo[4,3-c]pyridine]
- pKi [1]: 9.79
- pIC50 [2]: 5.96

Structure (SMILES): Cc1cncc(-c2cc3c(cn2)cnn3-c2cccc(N3CCNC[C@H]3C)n2)n1 [Compound 191, 1-[6-[(2R)-2-methylpiperazin-1-yl]-2-pyridyl]-6-(6-methylpyrazin-2-yl)pyrazolo[4,3-c]pyridine]
- pKi [1]: 9.81
- pIC50 [2]: 6.04

Structure (SMILES): Cc1cncc(-c2cc3c(cn2)cnn3-c2cccc(N3CCCC(N)C3C)n2)n1 (centres unmarked) [Compound 195, 2-methyl-1-[6-[6-(6-methylpyrazin-2-yl)pyrazolo[4,3-c]pyridin-1-yl]-2-pyridyl]piperidin-3-amine]
- pKi [1]: 10.19
- pIC50 [2]: 6.00

Structure (SMILES): Cc1nc(-c2cc3c(cn2)cnn3-c2cccc(N3CCCNCC3)n2)cnc1N [Compound 208, 5-(1-(6-(1,4-diazepan-1-yl)pyridin-2-yl)-1H-pyrazolo[4,3-c]pyridin-6-yl)-3-methylpyrazin-2-amine]
- pKi [1]: 10.92
- pIC50 [2]: 6.76

Structure (SMILES): Cc1cncc(-c2cc3c(cn2)cnn3-c2ccc(F)c(N3CCC[C@H](N)C3)n2)n1 [Compound 215, (S)-1-(3-fluoro-6-(6-(6-methylpyrazin-2-yl)-1H-pyrazolo[4,3-c]pyridin-1-yl)pyridin-2-yl)piperidin-3-amine]
- pKi [1]: 10.32
- pIC50 [2]: 5.92

Structure (SMILES): Cc1cncc(-c2cc3c(cn2)cnn3-c2ccc(C(F)(F)F)c(N3CCC[C@H](N)C3)n2)n1 [Compound 220, (S)-1-(6-(6-(6-methylpyrazin-2-yl)-1H-pyrazolo[4,3-c]pyridin-1-yl)-3-(trifluoromethyl)pyridin-2-yl)piperidin-3-amine]
- pKi [1]: 10.47
- pIC50 [2]: 5.92

Structure (SMILES): Cn1cc(-c2cc3c(cn2)cnn3-c2cccc(N3CCCNCC3)n2)cn1 [Compound 224, 1-(6-(1,4-Diazepan-1-yl)pyridin-2-yl)-6-(1-methyl-1H-pyrazol-4-yl)-1H-pyrazolo[4,3-c]pyridine]
- pKi [1]: 9.81
- pIC50 [2]: 5.82

Structure (SMILES): Cc1cncc(-c2cc3c(cn2)cnn3-c2cccc(N3CCC[C@H](N)C3=O)n2)n1 [Compound 225, (3S)-3-amino-1-[6-[6-(6-methylpyrazin-2-yl)pyrazolo[4,3-c]pyridin-1-yl]-2-pyridyl]piperidin-2-one]
- pKi [1]: 9.09
- pIC50 [2]: 6.08

Structure (SMILES): OCCNc1cncc(-c2cc3c(cn2)cnn3-c2cccc(N3CCNCC3)n2)n1 [Compound 282, 2-[[6-[1-(6-piperazin-1-yl-2-pyridyl)pyrazolo[4,3-c]pyridin-6-yl]pyrazin-2-yl]amino]ethanol]
- pKi [1]: 10.59
- pIC50 [2]: 6.77

Structure (SMILES): O[C@H]1CCC[C@@H]1Nc1cncc(-c2cc3c(cn2)cnn3-c2cccc(N3CCNCC3)n2)n1 [Compound 283]
- pKi [1]: 9.83
- pIC50 [2]: 6.00

Structure (SMILES): CNc1cccc(-n2ncc3cnc(-c4cncc(C)n4)cc32)n1 [Compound 297, N-methyl-6-(6-(6-methylpyrazin-2-yl)-1H-pyrazolo[4,3-c]pyridin-1-yl)pyridin-2-amine]
- pKi [1]: 9.37
- pIC50 [2]: 5.92

Structure (SMILES): OCC#Cc1cncc(-c2cc3c(cn2)cnn3-c2cccc(N3CCNCC3)n2)n1 [Compound 300, 3-(6-(1-(6-(piperazin-1-yl)pyridin-2-yl)-1H-pyrazolo[4,3-c]pyridin-6-yl)pyrazin-2-yl)prop-2-yn-1-ol]
- pKi [1]: 10.05
- pIC50 [2]: 5.89

Structure (SMILES): Cc1cncc(-c2cc3c(cn2)cnn3-c2cccc(C(=O)N3CCC[C@H](N)C3)n2)n1 [Compound 302, (S)-(3-aminopiperidin-1-yl)(6-(6-(6-methylpyrazin-2-yl)-1H-pyrazolo[4,3-c]pyridin-1-yl)pyridin-2-yl)methanone]
- pKi [1]: 7.99
- pIC50 [2]: 5.21

Structure (SMILES): Cc1cncc(-c2cc3c(cn2)cnn3-c2cccc(C(=O)N3CCC[C@@H](N)C3)n2)n1 [Compound 303, (R)-(3-aminopiperidin-1-yl)(6-(6-(6-methylpyrazin-2-yl)-1H-pyrazolo[4,3-c]pyridin-1-yl)pyridin-2-yl)methanone]
- pKi [1]: 7.93
- pIC50 [2]: 5.18

Structure (SMILES): c1ccc(-n2ncc3cnc(-c4cncc(NC5CNC5)n4)cc32)nc1 [Compound 308, N-(azetidin-3-yl)-6-(1-(pyridin-2-yl)-1H-pyrazolo[4,3-c]pyridin-6-yl)pyrazin-2-amine]
- pKi [1]: 9.55
- pIC50 [2]: 5.89

Structure (SMILES): Cc1cncc(-c2cc3c(cnn3-c3cccc(N4CCNCC4)n3)nn2)n1 [Compound 313, 6-(6-methylpyrazin-2-yl)-1-(6-(piperazin-1-yl)pyridin-2-yl)-1H-pyrazolo[4,3-c]pyridazine]
- pKi [1]: 10.14
- pIC50 [2]: 6.63
